Among the data in ChEMBL document CHEMBL5729261, “AMPK activators” (2022) are EC50 values, retold here.

Sequences of proteins named here, by UniProt entry; tags and fusion partners are left off. A change or cut given only in a name is not applied to a line headed by its entry.
UniProt P54619: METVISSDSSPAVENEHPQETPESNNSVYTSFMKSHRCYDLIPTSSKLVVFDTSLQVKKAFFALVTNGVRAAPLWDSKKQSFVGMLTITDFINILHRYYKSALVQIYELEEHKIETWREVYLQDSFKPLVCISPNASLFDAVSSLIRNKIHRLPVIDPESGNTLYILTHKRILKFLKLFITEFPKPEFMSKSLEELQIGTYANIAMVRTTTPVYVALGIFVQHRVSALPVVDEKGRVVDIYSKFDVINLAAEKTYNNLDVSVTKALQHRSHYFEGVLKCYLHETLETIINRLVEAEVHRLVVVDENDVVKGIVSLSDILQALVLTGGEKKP
UniProt Q13131: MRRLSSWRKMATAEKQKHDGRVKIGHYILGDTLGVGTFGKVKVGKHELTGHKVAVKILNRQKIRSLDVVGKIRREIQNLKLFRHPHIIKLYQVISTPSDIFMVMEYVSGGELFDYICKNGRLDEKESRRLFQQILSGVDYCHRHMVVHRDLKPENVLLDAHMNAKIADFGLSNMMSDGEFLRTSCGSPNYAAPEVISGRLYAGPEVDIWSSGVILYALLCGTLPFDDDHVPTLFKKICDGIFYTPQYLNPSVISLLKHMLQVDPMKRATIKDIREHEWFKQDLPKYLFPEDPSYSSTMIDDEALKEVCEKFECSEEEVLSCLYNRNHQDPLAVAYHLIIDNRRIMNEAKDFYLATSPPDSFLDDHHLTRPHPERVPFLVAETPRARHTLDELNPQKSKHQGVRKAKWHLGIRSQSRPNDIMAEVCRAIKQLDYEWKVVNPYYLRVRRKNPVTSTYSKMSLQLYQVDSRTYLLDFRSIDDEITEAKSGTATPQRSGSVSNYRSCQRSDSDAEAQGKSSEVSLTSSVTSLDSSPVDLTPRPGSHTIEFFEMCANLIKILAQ
UniProt Q9Y478: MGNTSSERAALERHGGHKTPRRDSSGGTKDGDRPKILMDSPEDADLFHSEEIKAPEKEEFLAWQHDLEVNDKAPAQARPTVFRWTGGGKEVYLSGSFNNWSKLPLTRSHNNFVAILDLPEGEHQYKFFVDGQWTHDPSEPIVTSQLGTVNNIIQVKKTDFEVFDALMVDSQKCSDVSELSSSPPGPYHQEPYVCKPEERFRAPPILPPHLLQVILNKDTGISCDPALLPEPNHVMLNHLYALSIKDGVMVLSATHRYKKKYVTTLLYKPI

By EC50 is commonly meant the concentration that produces a half-maximal response.

The assay has as its target AMP-activated protein kinase (AMPK) alpha-1/beta-1/gamma-1 (Homo sapiens, UniProt P54619+Q13131+Q9Y478). The assay is described as follows: In Vitro pAMPK1 Kinase Activation Assay: Compound effect on AMPK enzyme activation was determined in a cell-free format with a 12-point concentration curve. The ADP-Glo detection system was used to determine phosphorylation of a SAMS peptide substrate. Recombinant AMPK α1/β1/γ1 complex was pre-activated by phosphorylation with CAMKK2 followed by incubated with compound for 15 minutes prior to the SAMS phosphorylation reaction. Activity curves and EC50 values were fitted by interpolation to an ATP:ADP standard curve as indicated by the ADP-Glo manufacturer using Prism software. Format: protein-complex assay. A general note: In ADP-Glo the light output rises with the ADP produced.

Regarding `NC(=O)CN(CCS(=O)(=O)O)C(=O)c1ccc(-c2ccc(-c3nc4nc(O[C@@H]5CO[C@H]6[C@@H]5OC[C@H]6O)[nH]c4cc3Cl)cc2)cc1`, the concentration for a half-maximal effect (EC50) is 1.61 nM.
